The record followed here is article PMC7959488, “Identify potent SARS-CoV-2 main protease inhibitors via accelerated free energy perturbation-based virtual screening of existing drugs” (Proceedings of the National Academy of Sciences of the …, 2020).

This assay addresses SARS-CoV-2 M^pro (Severe acute respiratory syndrome coronavirus 2, UniProt P0DTD1).

Each structure is given as a SMILES string.

In the case of `OCCN(CCO)c1nc(N2CCCCC2)c2nc(N(CCO)CCO)nc(N3CCCCC3)c2n1` [DIP, dipyridamole], the UEFEP-ABFE is reported as 1.5 kcal/mol.
